Measured values reported in patent EP2769723A1, “Compounds for use in inhibiting HIV capsid assembly” (priority 2013, dated 2014).

Test system: TZM cells
Assay: Cytotoxicity by MTT test
Assay type: cell-based
Settings: Table 5, 2880 min, tested form: HCl
Procedure: Cytotoxicity of selected hits tested in the assay with NL4.3 infected cells was determined by MTT test. TZM cells were seeded on the previous day on 96-well plate in the density 5 x 10^3 cells per well. The tested compounds were added in different concentrations, but the DMSO concentration never exceeded 1 % DMSO. As controls were used cells treated only with 1 % DMSO (non-toxic concentration) and cells treated with 5 % DMSO (toxic concentration). 20 µl of the CellTiter 96 Aqueous One substrate (Promega) was added to the 100 µl of culture media 48 hrs after the compounds addition and the color development was quantified 4 hrs later by measuring the absorbance at 490 nm on Saphire reader. Compounds were consider non-cytotoxic (at given concentrations) when the measured values were higher than 80 % of the value of 1 % DMSO treated cells.

**Q.** `c1cncc(-c2nc(Nc3ccc4[nH]nnc4c3)c3ccccc3n2)c1` [AMR.325] was tested. Which CC50 did it give?
**A.** 150 µM
